Assay results reported in paper PMC3849266, “In Vitro and In Vivo Evaluation of a ^18F-Labeled High Affinity NOTA Conjugated Bombesin Antagonist as a PET Ligand for GRPR-Targeted Tumor Imaging” (PLoS ONE, 2013).

Protein sequences, listed by entry. Tags and fused reporters are not part of them. Lines headed by an entry give the natural chain unless they say otherwise; changes in a name come on top.
UniProt P30550: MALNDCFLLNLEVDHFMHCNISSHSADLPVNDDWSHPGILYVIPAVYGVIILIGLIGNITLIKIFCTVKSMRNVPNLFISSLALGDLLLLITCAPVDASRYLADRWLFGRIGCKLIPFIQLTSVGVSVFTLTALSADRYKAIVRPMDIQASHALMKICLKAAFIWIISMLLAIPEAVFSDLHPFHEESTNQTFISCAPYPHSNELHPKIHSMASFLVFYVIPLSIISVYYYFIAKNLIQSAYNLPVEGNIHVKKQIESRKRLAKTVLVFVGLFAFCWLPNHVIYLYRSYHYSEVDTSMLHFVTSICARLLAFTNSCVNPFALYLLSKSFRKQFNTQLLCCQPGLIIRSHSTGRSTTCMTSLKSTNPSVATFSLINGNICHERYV

Target: T1, GRPR (Homo sapiens, UniProt P30550)
T1 construct: PC-3 human prostate cancer cells (ATCC, LGC Standards AB) expressing GRPR; host or cells: PC-3 human prostate cancer cells
Test: In vitro competitive binding assay: displacement of 125I-Tyr4-BBN on PC-3 cells
Details: 3 h at 4 °C, read-out: IC50 (inhibition of 125I-Tyr4-BBN binding)

^natGa-NOTA-P2-RM26: NOTA-P2-RM26 loaded with stable gallium
IC50: 3.5 ± 0.5 nM
